# ChEMBL document CHEMBL4602618, “Novel compounds that reverse the disease phenotype in Type 2 Gaucher disease patient-derived cells” (Bioorg Med Chem Lett, 2020)
# Species on record: Homo sapiens
# Assay: Chaperone activity at GCase L444P GBA gene mutant in human fibroblasts derived from Gaucher patient assessed as increase in GPN-induced reduction of calcium release using Fluo-8AM based fluorescence assay relative to control
row,Compound,Emax [%]
1,CCC(C(=O)c1ccc(OCCN(C)C)cc1)c1ccccc1 (configuration not stated),0
2,CCCC(C(=O)c1ccc(OCCN(C)C)cc1)c1ccccc1 (configuration not stated),0
